## Antibody variant affinities, Ab-95 light chain, assay 2

Data: MIT Lincoln Laboratory AlphaSeq set, Engelhart et al. 2022, doi:10.1038/s41597-022-01779-4, as distributed in FLAb.

Target peptide (SARS-CoV-2 spike, HR2 region): PDVDLGDISGINAS

The variants keep the heavy chain, the linker and the frameworks of Ab-95 (scFv order VH, the linker GGGGSGGGGSGGGGS, VL).
VH: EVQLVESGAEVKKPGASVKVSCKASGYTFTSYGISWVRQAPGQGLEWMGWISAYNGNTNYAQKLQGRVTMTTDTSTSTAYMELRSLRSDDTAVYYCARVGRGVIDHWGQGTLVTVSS
VL: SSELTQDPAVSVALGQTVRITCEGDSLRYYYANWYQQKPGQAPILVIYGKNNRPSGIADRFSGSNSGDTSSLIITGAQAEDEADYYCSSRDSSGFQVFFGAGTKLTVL

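Variants in AAYL52 differ from the parent at up to three CDR positions; double and triple changes were sampled at random. The assay is AlphaSeq: two haploid yeast populations carry antibody and antigen on their surface. Mating (16 h, 30 °C) was followed by selection of diploids and sequencing of their barcodes. The ratio of observed to expected reads was calibrated, replicate by replicate, on BCL2-family standards whose Kd was known from biolayer interferometry. Mating was done three times.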

Changes read parent residue, position, new residue, counted from the first residue of the VL shown.
All variants listed here change G24 of the VL, counted from its first residue.
Each Kd is an estimate from the mating assay, the geometric mean of the replicates in which the pair was seen; lower is stronger.
A pair that was not seen in any replicate is written "nd"; this usually means weak binding, but a binder can also be missed.
Order: sorted from the lowest average up, undetected variants last.
Nonspecific signal, from three strains lacking the peptide, appeared in 28% of pairings of library AAYL52, centred on 8.2 µM (5% of these signals below 800 nM); values are not corrected for it.

For E23L+G24H+G94K, the assay gave 46 nM (3 of 3 replicates). For E23H+G24M+K50N, the assay gave 91 nM (3 of 3 replicates). For G24T+R28G+N51G, the assay gave 130 nM (3 of 3 replicates). The variant G24P+Y30E+K50A showed 350 nM (3 of 3 replicates). With G24M+Y31E+N52R the result was 360 nM (3 of 3 replicates). For G24V+Y30T+S92N, the assay gave 590 nM (3 of 3 replicates). With G24Y+F95Y+F98T the result was 690 nM (3 of 3 replicates). The variant G24A+Y30E+R53A showed 850 nM (3 of 3 replicates). For G24V+K50N+S89F, the assay gave 940 nM (3 of 3 replicates).

The variant G24T+K50H+N52E showed 1.4 µM (2 of 3 replicates). With G24M+S89F+V97L the result was 1.4 µM (2 of 3 replicates). For G24Q+S89V+S92E, the assay gave 1.7 µM (3 of 3 replicates). The variant G24A+S89I showed 1.9 µM (2 of 3 replicates). The variant G24L+N33C+S89E showed 1.9 µM (1 of 3 replicates). The variant G24W+S26F gave 2.1 µM (1 of 3 replicates). The variant G24E+D25C+Y31N showed 2.3 µM (2 of 3 replicates). For G24F+P54A+F95D, the assay gave 2.3 µM (3 of 3 replicates). The variant G24H+S93N+V97C gave 3.1 µM (3 of 3 replicates).

The variant G24N+S26F+Y30D showed 3.2 µM (3 of 3 replicates). The variant G24M+D25I+G94H showed 3.6 µM (3 of 3 replicates). With G24A+Y29I+F95D the result was 3.6 µM (2 of 3 replicates). The variant G24F+N33Y+F98G gave 3.9 µM (1 of 3 replicates). For G24Q+R28H+Y29R, the assay gave 4.3 µM (3 of 3 replicates). The variant G24C+L27W+A32S gave 5.0 µM (1 of 3 replicates). The variant G24W+R53W+S89V gave 7.7 µM (3 of 3 replicates). The variant G24M+N52I+D91E showed 8.6 µM (3 of 3 replicates). The variant G24P+L27M+F95K gave 9.2 µM (2 of 3 replicates).

The variant G24Y+K50W+R53M showed 14 µM (3 of 3 replicates). For G24E+P54K+R90H, the assay gave 16 µM (1 of 3 replicates). The variant G24M+A32I+V97F gave 17 µM (2 of 3 replicates). For G24E+K50Y+R53I, the assay gave 19 µM (2 of 3 replicates). The variant G24N+D25W+G49K gave 20 µM (2 of 3 replicates). The variant G24Y+S26R+R53L showed 20 µM (2 of 3 replicates). The variant G24E+K50Q+R53L showed 20 µM (2 of 3 replicates). With G24L+S55H+V97S the result was 21 µM (2 of 3 replicates). For G24P+R90S+F98C, the assay gave 23 µM (2 of 3 replicates).

The variant E23T+G24P+G94A gave 35 µM (3 of 3 replicates). For G24R+D25F+S55Q, the assay gave 41 µM (2 of 3 replicates). With G24N+L27W+P54H the result was 47 µM (2 of 3 replicates). The variant G24L+K50I+N51W gave 100 µM (2 of 3 replicates). For G24V+R53G+S88M, the assay gave nd (0 of 3 replicates). With G24Y+R53P+R90Q the result was nd (0 of 3 replicates). The variant G24I+N52K+D91G showed nd (0 of 3 replicates). The variant G24H+N33T+S93K gave nd (0 of 3 replicates). The variant G24K+A32R+G49M gave nd (0 of 3 replicates).

The variant G24D+S88H+S93A gave nd (0 of 3 replicates). For G24Q+A32T+K50Q, the assay gave nd (0 of 3 replicates). The variant G24N+N51K+S55H gave nd (0 of 3 replicates).

The first 6 variants above that were never detected:

{"changes": "G24V+R53G+S88M", "Kd (apparent)": "nd", "detected": "0/3"}
{"changes": "G24Y+R53P+R90Q", "Kd (apparent)": "nd", "detected": "0/3"}
{"changes": "G24I+N52K+D91G", "Kd (apparent)": "nd", "detected": "0/3"}
{"changes": "G24H+N33T+S93K", "Kd (apparent)": "nd", "detected": "0/3"}
{"changes": "G24K+A32R+G49M", "Kd (apparent)": "nd", "detected": "0/3"}
{"changes": "G24D+S88H+S93A", "Kd (apparent)": "nd", "detected": "0/3"}